Marks after values point to notes of the source that are not given here.
Columns and labels:
[1] = DMPK study in vivo (single administration, plasma concentration by LC-MS/MS); conditions: male C57 mice; for F % (oral bioavailability): intravenous 1 mg/kg, oral 10 mg/kg; for Cl (clearance rate) / Vdss (volume of distribution): intravenous administration of 1 mg/kg; for Oral DNAUC (AUCPO/Dose) / Cmax: oral administration of 10 mg/kg; for T1/2 (half-life): single administration; for Cmax: read-out: Cmax (maximum concentration)
Procedure: Experimental purpose: Male C57 mice were used as test animals to determine the blood concentration of the compound and evaluate the pharmacokinetic behavior after a single administration.
Experimental operation: 6 healthy adult male C57 mice were selected, 3 for the intravenous injection group and 3 for the oral group. The test compound was mixed with an appropriate amount of solvent^# of the intravenous injection group, and the mixture was vortexed and sonicated to prepare 1 mg/mL of a clear solution, which was filtered with a microporous membrane for later use. For oral group, the test compound was mixed with the solvent, and the mixture was vortexed and sonicated to prepare 1 mg/mL of a clear solution. After intravenous administration of 1 mg/kg or oral administration of 10 mg/kg to mice, whole blood was collected for a certain period of time, and plasma was prepared. The drug concentration was analyzed by LC-MS/MS method, and the pharmacokeneties parameters were calculated by Phoenix WinNonlin software (Pharsight, USA).
The solvent used in WXD004 was 20% polyethylene glycol 400/10% polyethylene glycol-15 hydroxystearate/70% H2O.

SD rat = assay: Rat oral glucose tolerance test (OGTT) in vivo; conditions: 10 mg/kg single gavage
Procedure: 1. Animal: [table] 2. Experiment Grouping: [table] Experiment Process: 1. Animal Adaptation and Preparation: The experimental animals needed to be acclimatized in the animal room for 1 week after arriving at the facility. 2. Fasting and Administration The animals were fasted for 18 h in the metabolic cage, and drugs or solvents (2 mL/kg) were given according to the above table, and then 50% glucose solution (2 g/kg, 4 mL/kg) was administrated immediately. 3. Urine and Blood Sugar Test Two hours after the animals were given sugar, they resumed eating. The time points of 0 min, 15 min, 30 min, 45 min, 60 min and 120 min were collected for blood glucose determination; urine during 0-24 h was used for urine sugar (mg/200 g) and urine volume test respectively. 4. Data Analysis: All values will be expressed as average values. Statistical analysis was evaluated using Graphpad Prism 6 one-way analysis of variance Tukey's multiple comparison test. P value of less than 0.05 was considered of statistically significant.

| F % (oral bioavailability) [1] [%] | Cl (clearance rate) [1] [mL/min/kg] | Vdss (volume of distribution) [1] [L/kg] | Oral DNAUC (AUCPO/Dose) [1] [nM · h/mpk] | T1/2 (half-life) [1] [h] | Cmax [1] [nM] | Structure (SMILES) | OGTT glucose level AUC0-2 hr (SD rat; then 50% glucose solution 2 g/kg, solvent control group 1079) | Urine sugar level (SD rat; urine during 0-24 h, solvent control group 0.4) [mg/200 g BW] | Urine volume (SD rat; urine during 0-24 h, solvent control group 16.8) [mL/200 g BW] |
| --- | --- | --- | --- | --- | --- | --- | --- | --- | --- |
| 10.2 | 20.7 | 13.2 | 113 | 13.4 | 171 | CS[C@H]1O[C@@H](c2ccc(Cl)c(Cc3ccc(O[C@@H]4CCN([C@@H]5CO[C@H](c6cc(F)ccc6F)[C@@H](N)C5)C4)cc3)c2)[C@H](O)[C@@H](O)[C@@H]1O |  |  |  |
| 18.2 | 42.0 | 17.8 | 109 | 8.99 | 225 | CCc1ccc([C@@H]2O[C@H](SC)[C@@H](O)[C@H](O)[C@H]2O)cc1Cc1ccc(O[C@@H]2CCN([C@@H]3CO[C@H](c4cc(F)ccc4F)[C@@H](N)C3)C2)cc1 (single isomer, unassigned) [WXD001] | 670**** mol/L × min | 16.2 | 11.2 |

— patent US12378277B2, “SGLTS/DPP4 inhibitor and application thereof” (DONGBAO PURPLE STAR (HANGZHOU) BIOPHARMACEUTICAL CO., LTD., priority 2019, dated 2025)
